# Results from patent publication US10201586B2 (dated 2019).
# Tested on: thrombin generation in FVIII- or FIX-deficient or FVIII-inhibited plasma
# Assay: plasma-based thrombin generation assay (calibrated automated thrombography)
# Type: biochemical, human
structure (smiles),measurement,value
CC(=O)N[C@@H](Cc1ccccc1)C(=O)N[C@@H](CCC(N)=O)C(=O)N[C@@H](CO)C(=O)N[C@@H](CCCCN)C(=O)N(C)CC(=O)N[C@@H](CC(N)=O)C(=O)N[C@H](C(=O)N[C@@H](Cc1ccccc1)C(=O)N[C@H](C(=O)N[C@@H](Cc1ccccc1)C(=O)NCC(=O)N[C@@H](Cc1ccc(O)cc1)C(=O)N[C@@H](Cc1ccccc1)C(=O)N[C@@H](CCC(=O)O)C(=O)N[C@@H](CCCNC(=N)N)C(=O)N[C@@H](CC(C)C)C(=O)N[C@@H](CCCNC(=N)N)C(=O)N[C@@H](C)C(=O)N[C@@H](CCCCN)C(=O)N[C@@H](CC(C)C)C(N)=O)C(C)C)C(C)C,FVIII-equivalent activity (mU/ml) in Hem A plasma @ 1 μM peptide,372 mU/ml
